Data published in PMC9059126, “Structure-Based Design of a Novel Class of Autotaxin Inhibitors Based on Endogenous Allosteric Modulators” (Journal of Medicinal Chemistry, 2022).

Target: ATX (Rattus norvegicus, UniProt Q64610)
Test: Choline oxidase-coupled choline-release assay of LPC hydrolysis by ATX
Conditions: read-out: %Inhibition at 100 μM

- inhibition at 100 µM: 8%
SMILES: COc1ccc(S(N)(=O)=O)cc1 [Compound 5]
